For 15 compounds, IC50 results are on record in patent US10526309B2, “Pan-TAM inhibitors and Mer/Axl dual inhibitors” (The University of North Carolina at Chapel Hill, priority 2015, dated 2020).

Format in all cases: biochemical
Holding throughout (details): Table 1

One assay deals with T1, Axl (Homo sapiens, UniProt P30530).
T1 sequence (P30530 26-894): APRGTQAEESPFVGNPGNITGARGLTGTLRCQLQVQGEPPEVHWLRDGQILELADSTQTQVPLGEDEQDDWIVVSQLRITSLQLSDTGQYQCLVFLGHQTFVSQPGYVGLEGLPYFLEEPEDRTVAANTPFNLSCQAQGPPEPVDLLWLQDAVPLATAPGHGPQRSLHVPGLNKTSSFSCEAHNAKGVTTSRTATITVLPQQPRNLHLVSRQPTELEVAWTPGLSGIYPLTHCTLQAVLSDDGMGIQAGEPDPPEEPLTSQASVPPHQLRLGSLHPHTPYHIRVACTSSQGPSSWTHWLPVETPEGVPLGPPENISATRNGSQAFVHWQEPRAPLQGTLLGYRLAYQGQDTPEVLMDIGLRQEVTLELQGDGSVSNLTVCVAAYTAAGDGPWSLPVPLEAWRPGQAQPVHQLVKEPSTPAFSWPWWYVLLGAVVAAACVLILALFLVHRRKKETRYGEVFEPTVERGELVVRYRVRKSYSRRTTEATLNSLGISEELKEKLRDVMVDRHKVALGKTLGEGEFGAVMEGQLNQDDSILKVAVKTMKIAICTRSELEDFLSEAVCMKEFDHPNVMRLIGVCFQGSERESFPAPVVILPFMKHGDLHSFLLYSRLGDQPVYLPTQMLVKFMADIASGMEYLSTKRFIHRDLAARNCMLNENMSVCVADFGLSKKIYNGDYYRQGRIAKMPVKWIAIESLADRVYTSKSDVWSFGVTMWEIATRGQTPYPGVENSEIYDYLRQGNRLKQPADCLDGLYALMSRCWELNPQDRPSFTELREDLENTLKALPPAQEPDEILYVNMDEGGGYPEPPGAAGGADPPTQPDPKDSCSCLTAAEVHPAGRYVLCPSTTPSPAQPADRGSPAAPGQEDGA
Description: Axl kinase inhibition IC50.

The target of a further assay is T2, Tyro3 (Homo sapiens, UniProt Q06418).
T2 sequence (Q06418 41-890): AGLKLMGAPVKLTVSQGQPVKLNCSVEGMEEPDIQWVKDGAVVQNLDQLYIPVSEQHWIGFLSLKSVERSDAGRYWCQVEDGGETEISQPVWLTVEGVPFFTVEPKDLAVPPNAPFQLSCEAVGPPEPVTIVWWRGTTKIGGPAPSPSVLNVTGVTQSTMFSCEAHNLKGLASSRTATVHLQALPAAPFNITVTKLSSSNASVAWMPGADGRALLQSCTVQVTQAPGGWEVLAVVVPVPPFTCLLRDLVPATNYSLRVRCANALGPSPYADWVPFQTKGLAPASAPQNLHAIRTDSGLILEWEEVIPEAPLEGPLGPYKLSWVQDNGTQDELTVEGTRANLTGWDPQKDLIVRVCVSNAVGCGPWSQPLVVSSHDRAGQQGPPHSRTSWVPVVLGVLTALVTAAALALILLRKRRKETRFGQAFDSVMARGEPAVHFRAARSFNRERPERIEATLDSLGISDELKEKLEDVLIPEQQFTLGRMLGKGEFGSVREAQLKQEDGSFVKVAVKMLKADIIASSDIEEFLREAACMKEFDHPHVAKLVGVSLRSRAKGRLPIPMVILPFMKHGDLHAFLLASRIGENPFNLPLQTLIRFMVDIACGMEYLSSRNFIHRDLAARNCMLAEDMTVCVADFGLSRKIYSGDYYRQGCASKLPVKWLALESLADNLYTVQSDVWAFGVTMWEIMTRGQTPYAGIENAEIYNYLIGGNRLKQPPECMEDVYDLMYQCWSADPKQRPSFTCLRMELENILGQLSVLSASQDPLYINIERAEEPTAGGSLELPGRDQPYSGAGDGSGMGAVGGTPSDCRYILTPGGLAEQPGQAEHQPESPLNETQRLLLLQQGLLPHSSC
In words: Tyro3 kinase inhibition IC50.

The target in a further assay is T3, Mer (Homo sapiens, UniProt Q12866).
T3 sequence (Q12866 21-999): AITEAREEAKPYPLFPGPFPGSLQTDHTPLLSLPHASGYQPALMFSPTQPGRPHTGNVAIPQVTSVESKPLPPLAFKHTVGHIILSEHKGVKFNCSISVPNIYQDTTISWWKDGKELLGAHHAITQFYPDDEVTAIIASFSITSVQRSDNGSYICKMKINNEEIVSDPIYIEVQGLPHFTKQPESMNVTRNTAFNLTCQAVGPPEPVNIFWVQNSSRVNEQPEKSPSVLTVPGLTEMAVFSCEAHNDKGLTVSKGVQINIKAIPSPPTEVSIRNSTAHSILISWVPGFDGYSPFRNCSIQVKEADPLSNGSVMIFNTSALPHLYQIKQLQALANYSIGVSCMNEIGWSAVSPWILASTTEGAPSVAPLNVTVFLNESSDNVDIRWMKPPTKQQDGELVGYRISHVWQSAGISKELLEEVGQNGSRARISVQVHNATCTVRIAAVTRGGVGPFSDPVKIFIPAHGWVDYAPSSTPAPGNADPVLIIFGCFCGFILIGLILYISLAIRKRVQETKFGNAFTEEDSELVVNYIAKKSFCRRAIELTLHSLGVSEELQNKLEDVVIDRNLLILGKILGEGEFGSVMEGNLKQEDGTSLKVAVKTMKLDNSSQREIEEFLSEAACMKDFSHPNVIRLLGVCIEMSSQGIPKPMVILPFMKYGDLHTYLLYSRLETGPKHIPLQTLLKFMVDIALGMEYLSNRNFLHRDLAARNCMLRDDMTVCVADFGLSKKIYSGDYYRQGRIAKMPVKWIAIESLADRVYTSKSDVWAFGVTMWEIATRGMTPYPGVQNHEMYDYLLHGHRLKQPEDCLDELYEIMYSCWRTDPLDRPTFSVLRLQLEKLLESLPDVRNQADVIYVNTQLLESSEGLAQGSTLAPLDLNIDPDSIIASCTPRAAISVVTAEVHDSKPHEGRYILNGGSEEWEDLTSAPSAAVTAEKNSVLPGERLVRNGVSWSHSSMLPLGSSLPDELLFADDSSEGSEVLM
In words: Mer kinase inhibition IC50.

Usually IC50 stands for the concentration that inhibits the measured activity by half. As for `C=Cc1ccc(Nc2ncc(-c3ccccn3)c(N[C@H]3CC[C@H](O)CC3)n2)cc1` [UNC3204A, trans-4-((5-(Pyridin-2-yl)-2-((4-vinylphenyl)amino)pyrimidin-4-yl)amino)cyclohexan-1-ol], the results for the IC50 against Axl and at Tyro3 were 100 to 1000 nM and 10 to 100 nM, respectively.
Take `N#Cc1ccc(Nc2ncc(-c3ccc(CN4CCCC4)cn3)c(N[C@H]3CC[C@H](O)CC3)n2)cc1` [UNC4372A]: the IC50 against Mer, on Axl and on Tyro3 was below 10 nM each time.
On to `O[C@H]1CC[C@H](Nc2nc(Nc3cccc(F)c3)ncc2-c2ccc(CN3CCCC3)cn2)CC1` [UNC4247A], for which the IC50 against Axl and against Tyro3 was below 10 nM throughout.
As for `O[C@H]1CC[C@H](Nc2nc(Nc3ccc(C(F)(F)F)cc3)ncc2-c2ccc(CN3CCCC3)cn2)CC1` [UNC4243A], the IC50 at Axl is 10 to 100 nM; against Tyro3, below 10 nM.
Regarding `O[C@H]1CC[C@H](Nc2nc(Nc3ccccc3F)ncc2-c2ccc(CN3CCCC3)cn2)CC1` [UNC4244A], the IC50 was 10 to 100 nM against Axl and below 10 nM against Tyro3.
Regarding `O[C@H]1CC[C@H](Nc2nc(Nc3ccc(F)cc3)ncc2-c2ccc(CN3CCCC3)cn2)CC1` [UNC4241A], the concentration for half-maximal inhibition (IC50) against Axl and against Tyro3 was below 10 nM in each case.
In turn, `O[C@H]1CC[C@H](Nc2nc(Nc3ccccn3)ncc2-c2ccccn2)CC1` [UNC3224A] returned an IC50 against Tyro3 of 10 to 100 nM.
As to `COc1ccc(Nc2ncc(-c3ccc(CN4CCCC4)cn3)c(N[C@H]3CC[C@H](O)CC3)n2)cc1` [UNC4240A], the IC50 at Axl is 100 to 1000 nM; against Tyro3, below 10 nM.
On Tyro3, `O[C@H]1CC[C@H](Nc2nc(Nc3cccc4ccccc34)ncc2-c2ccccn2)CC1` [UNC3205A] showed an IC50 of 10 to 100 nM.
With `Cc1ccc(Nc2ncc(-c3ccc(CN4CCCC4)cn3)c(N[C@H]3CC[C@H](O)CC3)n2)cc1` [UNC4242A], the IC50 on Axl and against Tyro3 was below 10 nM throughout.
Turning to `O[C@H]1CC[C@H](Nc2nc(Nc3ccc4ccccc4c3)ncc2-c2ccccn2)CC1` [UNC3207A], the IC50 on Axl was 100 to 1000 nM; against Tyro3, 10 to 100 nM.
At Tyro3, `C#Cc1ccccc1Nc1ncc(-c2ccccn2)c(N[C@H]2CC[C@H](O)CC2)n1` [UNC3206A] showed an IC50 of 1000 to 30000 nM.
Turning to `O[C@H]1CC[C@H](Nc2nc(Nc3ccc(Br)cc3)ncc2-c2ccc(CN3CCCC3)cn2)CC1` [UNC4377A], the IC50 against Axl and against Tyro3 was below 10 nM throughout.
For the compound `C#Cc1cccc(Nc2ncc(-c3ccccn3)c(N[C@H]3CC[C@H](O)CC3)n2)c1` [UNC3223A], the IC50 is 100 to 1000 nM on Axl and below 10 nM on Tyro3.
`O[C@H]1CC[C@H](Nc2nc(Nc3ccc(Cl)cc3)ncc2-c2ccc(CN3CCCC3)cn2)CC1` [UNC4373A]: the half-maximal inhibitory concentration (IC50) at Axl and against Tyro3 was below 10 nM each time.
